Test results published in PMC12274840 (The Journal of Biological Chemistry, 2025).

System: E. coli KA797 cells carrying pUK21 with KPC-2 (Tat)
Type: cell-based
Settings: in combination with 100 μg/ml carbenicillin

## CC1(C)[C@H](C(=O)O)N2C(=O)C[C@H]2S1(=O)=O [sulbactam]
  MIC of inhibitor: 16 µg/mL
